{
  "sequences": {"note": "Protein sequences, listed by entry. Tags and fused reporters are not part of them. Residues count along the entry.", "UniProt P0AE06, 25-397": "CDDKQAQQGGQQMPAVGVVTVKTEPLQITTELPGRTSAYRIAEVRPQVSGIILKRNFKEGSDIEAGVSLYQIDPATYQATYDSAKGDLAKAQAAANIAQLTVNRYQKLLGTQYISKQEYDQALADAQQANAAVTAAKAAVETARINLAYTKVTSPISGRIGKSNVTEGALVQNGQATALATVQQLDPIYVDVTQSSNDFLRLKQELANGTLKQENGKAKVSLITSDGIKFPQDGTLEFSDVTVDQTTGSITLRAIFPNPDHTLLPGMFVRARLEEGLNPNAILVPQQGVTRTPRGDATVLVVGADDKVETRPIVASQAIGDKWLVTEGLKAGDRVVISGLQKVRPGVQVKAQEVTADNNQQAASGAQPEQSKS"},
  "source": "paper PMC8668026",
  "about": "(ACS infectious diseases, 2021)",
  "origin": "cited, not measured here",
  "molecular_target": "AcrA (Escherichia coli, UniProt P0AE06)",
  "settings": "read-out: KD AcrA; SPR; ref [38] and [47]; cited from earlier work",
  "note": "pKd: −log10 of the molar value.",
  "data": [
    {"smiles": "NC(N)=NCCCC(NC(=O)[C@@H](N)Cc1ccccc1)C(=O)Nc1ccc2ccccc2c1", "note": "(stereo partly shown) [MC]", "values": [
      {"measurement": "pKd", "value": 3.55}
    ]}
  ]
}
